Where “and” joins values, the source holds several entries; their conditions need not be identical. Equal entries are not always repeated. The entries are a selection whose mix differs from that of the whole data set. Calls of active or inactive are those of the source. The rule behind the calls is not given here.
molecular target: Polyadenylate-binding protein 1 (Homo sapiens) (UniProt P11940); experiment: PABP poly(A) RNA binding inhibitors, primary screen, biochemical, fluorescence polarization, uHTS (AID 2014); conditions: at 35 µM, hits give high values

Chains of the proteins cited; added tags and fusions are not shown.
UniProt P11940, whole entry: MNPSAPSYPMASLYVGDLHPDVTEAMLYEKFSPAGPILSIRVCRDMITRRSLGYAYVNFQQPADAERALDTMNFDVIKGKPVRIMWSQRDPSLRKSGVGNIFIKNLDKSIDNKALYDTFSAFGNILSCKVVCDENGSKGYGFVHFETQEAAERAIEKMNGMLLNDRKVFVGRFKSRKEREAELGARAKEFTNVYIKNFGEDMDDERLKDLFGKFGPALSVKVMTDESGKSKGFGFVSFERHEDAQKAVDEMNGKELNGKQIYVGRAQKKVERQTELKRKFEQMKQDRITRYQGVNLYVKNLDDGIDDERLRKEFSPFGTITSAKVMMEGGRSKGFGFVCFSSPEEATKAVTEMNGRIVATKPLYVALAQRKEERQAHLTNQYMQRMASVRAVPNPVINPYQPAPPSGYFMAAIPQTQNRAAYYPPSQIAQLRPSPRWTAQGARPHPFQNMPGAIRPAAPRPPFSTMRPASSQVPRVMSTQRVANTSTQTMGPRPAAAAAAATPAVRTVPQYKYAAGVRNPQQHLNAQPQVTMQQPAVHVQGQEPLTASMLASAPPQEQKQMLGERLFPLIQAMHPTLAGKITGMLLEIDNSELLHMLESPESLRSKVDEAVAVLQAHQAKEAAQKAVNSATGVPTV

| Compound | inhibition |
| --- | --- |
| Cc1ccccc1OP(=O)(Nc1ccccn1)Oc1ccccc1C | inactive: -2.4% |
| O=[N+]([O-])c1cc([N+](=O)[O-])c(OC2CCCCC2O)c([N+](=O)[O-])c1 (centres undefined) | inactive: 1.7% |
| CCCCCOc1ccc(NP(C)(=O)Oc2ccc(Cl)cc2Cl)cc1 (centres undefined) | inactive: -6.3% |
| O=c1c2cc([N+](=O)[O-])ccc2[nH]c2c([N+](=O)[O-])cc([N+](=O)[O-])cc12 | inactive: 3.9% |
| CN(C)C(=O)Oc1noc2ccccc12 | inactive: 1% |
| CP(=O)(Nc1ccccc1)Oc1ccc(F)cc1 (centres undefined) | inactive: -4.4% |
| CN(C)C1(CNC(=O)c2ccc(Cl)c(S(N)(=O)=O)c2)CCCCC1 | inactive: 6.6% |
| O=P(Nc1ccccn1)(c1ccc(Br)cc1)c1ccc(Br)cc1 | inactive: -0.5% |
| COc1ccc(OP(C)(=O)Nc2cccc(Br)c2)cc1 (centres undefined) | inactive: -2.1% |
| COc1ccc(NP(C)(=O)Oc2ccccc2OC)cc1 (centres undefined) | inactive: 9.3% |
| O=P(Nc1nc2ccccc2s1)(c1ccccc1)c1ccccc1 | inactive: -10.5% |
| CN(C)CCOC(=O)C(O)(c1ccccc1)C1CCCCC1 (centres undefined) | inactive: 0.1% |
| C[C@H]1OP(=O)(Oc2ccccc2)[C@H](O)[C@H](O)[C@H]1N=[N+]=[N-] (some centres undefined) | inactive: -2.9% |
| O=[As](O)(c1ccccc1)c1ccc(O)cc1 | inactive: 2.2% |
| O=[N+]([O-])c1cc([N+](=O)[O-])c(NCC2CCS(=O)(=O)C2)c([N+](=O)[O-])c1 (centres undefined) | inactive: 1.9% |
| Cc1cc(-c2cccc3ccccc23)c(C)cn1.O=[N+]([O-])c1cc([N+](=O)[O-])c(O)c([N+](=O)[O-])c1 | inactive: -0.5% |
| O=[N+]([O-])c1ncn(CCn2cnc([N+](=O)[O-])n2)n1 | inactive: -6% |
| O=[N+]([O-])c1ccc(OP2(=O)COCCO2)cc1 (centres undefined) | inactive: 2.7% |
| O=[N+]([O-])c1ccc(O)c(/C=N/Nc2ccc([N+](=O)[O-])cc2[N+](=O)[O-])c1 | inactive: 4.6% |
| O=C(OC1CN2CCC1CC2)c1cccc(Cl)c1 (centres undefined) | inactive: 0.7% |
| C(Cc1nn[nH]n1)Cc1nn[nH]n1 | inactive: 47.7% |
| Nc1ccc([As](=O)(O)c2ccc([N+](=O)[O-])cc2)cc1 | inactive: 0.4% |
| O=P(Nc1nccs1)(c1ccccc1)c1ccccc1 | inactive: 1.8% |

| Compound | inhibition |
| --- | --- |
| CC(C)C(=O)NC(Sc1ccccc1)C(Cl)(Cl)Cl (centres undefined) | inactive: 10.1% |
| CP(=O)(Nc1ccc(SC(F)(F)F)cc1)Oc1ccc(F)cc1 (centres undefined) | inactive: -9.2% |
| c1nnnn1CCn1cnnn1 | inactive: -7.6% |
| CCOP(C)(=S)SCC(=O)NC(C)(CC)C(=O)O (centres undefined) | inactive: 4.5% |
| CP(=O)(Nc1ccc2c(c1)OCCO2)Oc1ccccc1 (centres undefined) | inactive: 13.2% |
| Cc1ccccc1NP(C)(=O)Nc1ccccc1C | inactive: -5% |
| CCN(CC)CC(O)COC(=O)C(O)(c1ccccc1)C1CCCCC1 (centres undefined) | inactive: 4.2% |
| COc1ccc(C2=NCC(CBr)S2)cc1 (centres undefined) | inactive: 11.3% |
| COc1ccc(OP(C)(=O)Nc2ccc(Br)cc2)cc1 (centres undefined) | inactive: -4% |
| Cc1ccc(NP(=O)(Oc2ccccc2)Oc2ccccc2)nc1 | inactive: -8.9% |
| CP(=O)(Oc1ccccc1)N1CCOC1=O (centres undefined) | inactive: 8.1% |
| CCc1ccc(OP(C)(=O)Nc2cccnc2)cc1 (centres undefined) | inactive: -16.5% |
| O=[N+]([O-])c1cc([N+](=O)[O-])c(CCNc2ccccc2)c([N+](=O)[O-])c1 | inactive: -3.7% |
| CCc1nc2c(n1)c1c(non1O)c1c2no[n+]1[O-] | inactive: 7% |
| CC(=O)N1C2C3N(C(C)=O)C1C1N(C(C)=O)C(C(N1C(C)=O)N3C(C)=O)N2C(C)=O | inactive: 48% |
| O=[N+]([O-])c1cccc2n[nH]nc12 | inactive: -7.3% |
| COc1ccccc1OP(C)(=O)Nc1c(C)n(C)n(-c2ccccc2)c1=O (centres undefined) | inactive: -9.9% |
| O=C(OCCCN1CCCC1)C(O)(c1ccccc1)C1CCCCC1 (centres undefined) | inactive: 8.7% |
| CCN(/C(=N/P(=O)(N1CCOCC1)N1CCOCC1)N1CCOCC1)c1ccc(OC)cc1 | inactive: -1.5% |
| CP(=O)(Nc1ccc(Cl)cc1)Oc1ccc(F)cc1 (centres undefined) | inactive: -7.9% |
| COc1ccccc1OP(C)(=O)Nc1ccccc1Br (centres undefined) | inactive: 9.7% |
| Nc1ccc([As](=O)(O)c2ccc(N)cc2)cc1 | inactive: 13.1% |
| CC(C)(C)c1ccc(OP(C)(=O)O)cc1 | inactive: 5.1% |

| Compound | inhibition |
| --- | --- |
| CC1CCN(C(=O)Oc2c(Cl)cc(Cl)c3cccnc23)CC1 | inactive: 2.3% |
| CC(C)=N/N=C(\N)N[N+](=O)[O-] | inactive: -5.9% |
| CN(C)C(=O)c1c([N+](=O)[O-])cc([N+](=O)[O-])cc1[N+](=O)[O-] | inactive: 0.5% |
| CN(C)C(=O)OCCc1n(C)cc[n+]1C | inactive: -14.1% |
| CP(=O)(OC12CC3CC(CC(C3)C1)C2)OC12CC3CC(CC(C3)C1)C2 | inactive: 0.2% |
| CCOC(=O)c1ccc(NP(C)(=O)Oc2ccc(Cl)cc2)cc1 (centres undefined) | inactive: -6.5% |
| O=C(Nc1cc([As](=O)(O)O)ccc1O)c1ccccc1 | inactive: 11.7% |
| O=[N+]([O-])c1ncn(CCn2ncnc2[N+](=O)[O-])n1 | inactive: 5.1% |
| CC(C)(C)C(=O)NC(Sc1ccncn1)C(Cl)(Cl)Cl (centres undefined) | inactive: 3.6% |
| O=C(O)CNc1ccc([As](=O)(O)O)cc1 | inactive: 12.1% |
| O=[N+]([O-])c1cccc(NC2=NCC(CBr)S2)c1 (centres undefined) | inactive: 7.3% |
| O=P(Nc1nc2ccc(Cl)cc2s1)(c1ccccc1)c1ccccc1 | inactive: 4.1% |
| Cc1cc(C)cc(OP(C)(=O)Nc2cccc(C(F)(F)F)c2)c1 (centres undefined) | inactive: -4.8% |
| CC(=O)Nc1ccc([As](=O)(O)O)cc1 | inactive: -0.7% |
| O=C(O)c1ccccc1[As](=O)(O)O | inactive: 6.9% |
| COc1ccc(OP(C)(=O)Nc2ccccc2Br)cc1 (centres undefined) | inactive: -5.9% |
| Cc1cc(SC(NC(=O)c2ccc(F)cc2)C(Cl)(Cl)Cl)ncn1 (centres undefined) | inactive: 5.1% |
| CCOP(=O)(Nc1ccccc1)OCC | inactive: 3.2% and inactive: -0.9% |
| COc1ccccc1OP(C)(=O)Nc1ccc(C)c(C)c1 (centres undefined) | inactive: -0.8% |
| Cc1ccc(NP(=O)(Oc2ccccc2F)Oc2ccccc2F)nc1 | inactive: -8.7% |
| Cc1nc2ccc3ccccc3c2o1.O=[N+]([O-])c1cc([N+](=O)[O-])c(O)c([N+](=O)[O-])c1 | inactive: 6% |
| CP(=O)(Nc1ccc(Cl)cc1Cl)Oc1ccccc1 (centres undefined) | inactive: 2.2% |
| CP(=O)(OCCOc1ccccc1)OCCOc1ccccc1 | inactive: -2.4% |

| Compound | inhibition |
| --- | --- |
| CCN(N=Nc1nonc1N)c1nonc1N | inactive: 0.7% |
| COc1ccccc1OP(C)(=O)Nc1ccc(Br)cc1 (centres undefined) | inactive: 2.9% |
| Cc1ccc(N/C(=N/P(=O)(N2CCOCC2)N2CCOCC2)N2CCOCC2)cc1 | inactive: -1.2% |
| NC(=O)c1cc([N+](=O)[O-])cc([N+](=O)[O-])c1N | inactive: 12.3% |
| CN1CCCC(OC(=O)C(c2ccccc2)c2ccccc2)C1 (centres undefined) | inactive: 36% |
| CN(C)CCOC(=O)C(O)(c1ccccc1)C1CCCC1 (centres undefined) | inactive: -0.5% |
| Clc1ccc(Cl)c(NC2=NCC(CBr)S2)c1 (centres undefined) | inactive: 0.8% |
| COc1ccccc1OP(=O)(Nc1ccc(C)cn1)Oc1ccccc1OC | inactive: 0.4% |
| COc1ccc(OP(C)(=O)Nc2ccccn2)cc1 (centres undefined) | inactive: -4.8% |
| Cc1ccc(OP(=O)(Nc2nccs2)Oc2ccc(C)cc2)cc1 | inactive: -1.9% |
| Oc1ccccc1CNc1ccccn1 | inactive: -2.4% |
| O=C(NC(Sc1ccncn1)C(Cl)(Cl)Cl)c1ccccc1 (centres undefined) | inactive: -6.5% |
| Cc1c2non([O-])c-2c(C)[n+](=O)[n+]1[O-] | inactive: 5.2% |
| Nc1cc(N)c2nonc2c1[N+](=O)[O-] | inactive: 18.2% |
| Cc1c(NP(C)(=O)Oc2ccc(C(C)C)cc2)c(=O)n(-c2ccccc2)n1C (centres undefined) | inactive: -3.1% |
| O=[N+]([O-])c1cc([N+](=O)[O-])c(Nc2ccccn2)c([N+](=O)[O-])c1 | inactive: -0.4% |
| CC(C)CC(=O)NC(Sc1ccc(Cl)cc1)C(Cl)(Cl)Cl (centres undefined) | inactive: -8% |
| CCc1ccc(OP(C)(=O)O)cc1 | inactive: -13.9% |
| CP(=O)(Nc1ccccn1)Oc1ccccc1 (centres undefined) | inactive: 1.7% |
| COc1ccccc1OP(C)(=O)Nc1ccc(C)cc1C (centres undefined) | inactive: 2.9% |
